Drawing on PubChem BioAssay AID485349 (National Center for Advancing Translational Sciences (NCATS), 2010), this text covers activation for 29 compounds.

Structures are written as SMILES. The entries are a selection whose mix differs from that of the whole data set. Calls of active or inactive are those of the source. Calls follow the shape of the dose curve; as a rule, active = well fitted activation curve with a large enough effect; inconclusive = small, poorly fitted or top-dose-only effect; inactive = no such curve, though single readings can be large or run the other way.

The nature of this assay: qHTS Assay for Identifying a Potential Treatment of Ataxia-Telangiectasia. Also: % of control where 0% means no effect; nearly all actives have a fitted effect of over 45% in size. To be noted: […] A-T fibroblasts, KAP-1 phosphorylation AlphaLISA, neocarzinostatin DNA damage 30 min before lysis; at 57.5 µM (top of the series). The source says: NIH Chemical Genomics Center [NCGC] NIH Molecular Libraries Probe Centers Network [MLPCN] MLPCN Grant: MH089030-01 Assay Submitter (PI): Wei Zheng and Yosef Shiloh Ataxia-telangiectasia (A-T) is a devastating and progressive disease for which, there is no cure. Although A-T is a multisystem disease, it is stereotyped characterized by its neurological symptoms such as truncal ataxia, due to cerebellar cortical degeneration of the Purkinje and granule cells. Other symptoms of A-T are telangiectasias (dilated blood vessels), primary immunodeficiency, marked sensitivity to ionizing radiation (IR), chromosomal instability and predisposition to cancer. The underlying genetic cause of A-T is null mutations in the ATM (A-T mutated) gene. ATM is a nuclear serine/threonine kinase that functions as a master regulator of the cellular responses to double strand breaks (DSBs) in the DNA. Upon activation by DSBs, ATM phosphorylates a plethora of down stream targets, including KAP-1 on […]. KAP-1 phosphorylation occurs shortly in response to DSBs and mediates global chromatin relaxation, which facilitates DSB repair. To screen for small molecules that will compensate for the loss of ATM in cells derived from A-T patients, we monitored KAP-1 phosphorylation as a readout for ATM-like activity using an AlphaLISA assay.
qHTS Assay Protocol: Step,Parameter,Value,Description 1. Cell Plating, 3 ul, 500 cells/well in OPTI-MEM, 1% FBS, 1% Pen/Strep 2. Incubation, 16-24 hr, 37C, 5% CO2, 95% humidity 3. Library compounds, 23 nl, 76.7 - 0.61uM dilution series final concentration 4. Incubation, 60 min, 37C, 5% CO2, 95% humidity 5. Reagent, 1 ul, 1600 ng/ml NCS in PBS + 0.05% BSA + 0.005% Tween 20 6. Incubation, 30 min, 37C, 5% CO2, 95% humidity 7. Reagent, 1 ul, Premixed detection reagents and lysis buffer 8. Reagent, 1 ul, 0.6% Antifoam A 9. Incubation, 6 hr, 25C, 95% humidity 10. Readout, EnVision, EnVision plate reader. AlphaScreen 1536-well protocol Cells were plated using medium-binding white solid-bottom tissue culture treated Kalypsys plates. Multidrop dispense of 3 uL of […] (hTERT immortalized A-T patient fibroblast cells). Detection reagent and lysis buffer was 3.75nM Rab-a-pKAP1 antibody bound to 75 ng/ul AlphaScreen SA donor bead, 3.75 nM Biot-M-a-KAP1 antibody bound to AlphaLISA protein A acceptor bead, 0.5x protease inhibitor cocktail and 0.25x PerkinElmer lysis buffer. EnVision protocol for 1536-well AlphaScreen read (30ms excitation, 100ms read), about 10 min/plate.
Background: In qHTS, concentration-response curves come from the screen itself.
As to `CCN1CCC(Nc2cccc(F)c2)CC1`, the activation was inactive: -7.3%.
Consider `CN(C)c1ccc(C(=O)NCC2(N3CCCCC3)CCCCC2)cc1`, for which the activation was inactive: 3.15%.
The result for `O=C(NCC1(N2CCCCC2)CCCCC1)c1ccco1` reads inactive: -1.53%.
Consider `COc1cc(OC)cc(C(=O)NCC2(N3CCCCC3)CCCCC2)c1`, for which the activation was inactive: 14.9%.
Take `Fc1ccccc1NC1CCN(Cc2ccccc2)CC1`: the activation is inactive: -3.12%.
For `Cc1ccc(C(=O)NCC2(N3CCCCC3)CCCCC2)o1` the value was inactive: 0.846%; for `CCC(CO)(C(=O)OC1CN2CCC1CC2)c1ccccc1` (centres undefined), inactive: 2.3%.
For `COc1cccc(C(=O)N(c2cc(C)cc(C)c2)C2CCN(C(=O)OC(C)(C)C)CC2)c1` the value was inactive: -10%; for `COc1cc(OC)cc(C(=O)NCC2(N3CCOCC3)CCCCC2)c1`, inactive: 1.49%.
The result for `CCCOc1ccc(C)cc1CN(CCCl)CCCl` reads inactive: 2.27%; that for `CN1CCC(Nc2ccc(Cl)cc2)CC1`, inactive: -5.7%.
Regarding `CN1CCC(Nc2ccc(F)c(Cl)c2)CC1`, the activation was inactive: 5.2%.
As for `CCOc1ncccc1C(=O)NCC1(N2CCOCC2)CCCCC1`, the activation is inactive: -1.19%.
For `CCCOc1ccc(C(=O)NCC2(N(C)C)CCCCC2)cc1` the value was inactive: -2.92%.
The result for `O=C(O)C1(Nc2ccccc2)CCN(Cc2ccccc2)CC1` reads inactive: -10.5%; that for `CC(C)(C)OC(=O)N1CCC(Nc2ccccc2)CC1`, inactive: -0.871%; that for `N/C(=N\O)c1c(N)no[n+]1[O-]`, inactive: 5.25%.
With `CCOC(=O)N1CCC(Nc2ccc(C)cc2)CC1`, the activation was inactive: -9.87%.
Consider `O=C(O)c1cccc(Nc2c([N+](=O)[O-])cc([N+](=O)[O-])cc2[N+](=O)[O-])c1`, for which the activation is inactive: 0%.
For `CCc1cc(C(=O)NCC2(N3CCCCC3)CCCCC2)sc1C` the value was inactive: 2.56%.
Consider `O=C(OC1CN2CCC1CC2)C1c2ccccc2C=Cc2ccccc21` (centres undefined), for which the activation is inactive: 17.3%.
Turning to `O=C(NCC1(N2CCOCC2)CCCCC1)c1cc(Br)ccc1Cl`, the activation is inactive: -2.23%.
For `COc1cc(C(=O)NCC2(N3CCOCC3)CCCCC2)cc(OC)c1C` the value was inactive: -7.78%; for `COc1ccc(C(=O)NCC2(N3CCOCC3)CCCCC2)cc1OC`, inactive: 1.42%.
Consider `CCCN1CCC(Nc2cc(OC)cc(OC)c2)CC1`, for which the activation is inactive: 1.26%.
Consider `c1ccc(CN2CCC(Nc3ccccc3)CC2)cc1`, for which the activation was inactive: 4.12%.
`CN(C)C1(CNC(=O)c2cccc(C#N)c2)CCCCC1`: the activation is inactive: -5.26%.
For `CC(C)(C)OC(=O)N1CCC(N(C(=O)c2ccccc2)c2ccc(Cl)cc2)CC1` the value was inactive: -4.35%.
The result for `N#Cc1ccc(C(=O)NCC2(N3CCCCC3)CCCCC2)cc1` reads inactive: -3.65%.
